Results on one compound are retold here after patent publication US6506765B2 (TAP Pharmaceutical Products, Inc., priority 2000, dated 2003).

Sequences of proteins named here, by UniProt entry; tags and fusion partners are left off. A change or cut given only in a name is not applied to a line headed by its entry.
UniProt P18089, whole entry: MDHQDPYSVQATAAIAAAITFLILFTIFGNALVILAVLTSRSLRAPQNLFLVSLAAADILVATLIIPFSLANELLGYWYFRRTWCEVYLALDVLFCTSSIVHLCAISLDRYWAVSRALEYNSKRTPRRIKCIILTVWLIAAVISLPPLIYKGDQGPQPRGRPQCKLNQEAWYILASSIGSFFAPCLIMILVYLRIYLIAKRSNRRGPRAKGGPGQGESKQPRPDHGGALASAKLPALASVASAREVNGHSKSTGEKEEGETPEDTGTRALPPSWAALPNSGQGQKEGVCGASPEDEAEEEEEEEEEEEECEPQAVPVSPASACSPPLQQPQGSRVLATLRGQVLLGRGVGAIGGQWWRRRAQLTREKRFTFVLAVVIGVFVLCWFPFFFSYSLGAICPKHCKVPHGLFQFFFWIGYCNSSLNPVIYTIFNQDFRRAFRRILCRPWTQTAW
UniProt P11229: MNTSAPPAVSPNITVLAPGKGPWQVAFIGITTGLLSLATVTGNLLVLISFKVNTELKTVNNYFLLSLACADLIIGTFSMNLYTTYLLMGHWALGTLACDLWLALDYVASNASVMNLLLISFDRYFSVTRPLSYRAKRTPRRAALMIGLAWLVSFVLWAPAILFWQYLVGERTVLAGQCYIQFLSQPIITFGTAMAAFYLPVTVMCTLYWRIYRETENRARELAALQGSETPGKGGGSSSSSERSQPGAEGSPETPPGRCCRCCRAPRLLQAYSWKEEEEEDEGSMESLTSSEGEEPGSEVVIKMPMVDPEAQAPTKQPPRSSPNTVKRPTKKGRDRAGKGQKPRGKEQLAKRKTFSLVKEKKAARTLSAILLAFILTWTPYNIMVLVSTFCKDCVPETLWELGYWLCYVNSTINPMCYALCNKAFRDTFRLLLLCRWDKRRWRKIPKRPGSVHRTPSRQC
UniProt P25100, whole entry: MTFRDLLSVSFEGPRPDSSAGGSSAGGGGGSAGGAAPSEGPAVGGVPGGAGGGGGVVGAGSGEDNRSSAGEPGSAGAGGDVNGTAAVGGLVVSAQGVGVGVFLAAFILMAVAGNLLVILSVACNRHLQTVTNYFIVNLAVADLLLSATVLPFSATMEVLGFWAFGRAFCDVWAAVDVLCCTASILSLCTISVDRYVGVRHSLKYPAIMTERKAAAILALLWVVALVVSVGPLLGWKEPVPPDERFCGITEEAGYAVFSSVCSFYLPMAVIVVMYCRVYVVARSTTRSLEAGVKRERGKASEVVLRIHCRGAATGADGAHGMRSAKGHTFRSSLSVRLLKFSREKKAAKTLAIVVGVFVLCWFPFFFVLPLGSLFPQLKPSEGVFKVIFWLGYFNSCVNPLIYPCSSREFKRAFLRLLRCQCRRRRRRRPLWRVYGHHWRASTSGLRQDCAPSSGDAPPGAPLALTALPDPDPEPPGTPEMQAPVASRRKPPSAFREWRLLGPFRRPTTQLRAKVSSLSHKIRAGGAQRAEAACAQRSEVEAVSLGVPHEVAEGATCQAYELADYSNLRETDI

One assay has as its target Adrenergic α2B (Homo sapiens, UniProt P18089). Briefly: radioligand binding assay, Adrenergic α2B. As for the experimental part: (§1) Routine radioligand binding assays were performed using reference standards according to established methodology. IC50 values were determined by a non-linear least square regression analysis.
In the next assay the target is muscarinic M1 (Homo sapiens, UniProt P11229). The assay can be described thus: radioligand binding assay, muscarinic M1. As for the experimental part:
as §1

The target of the next assay is Adrenergic α1D (Homo sapiens, UniProt P25100). Briefly: radioligand binding assay, Adrenergic α1D.

Each structure is given as a SMILES string.

Take `CN1CCc2cccc3c2[C@H]1Cc1ccc(O)c(O)c1-3` [Apomorphine, (R)-5,6,6a,7-tetrahydro-6-methyl-4H-dibenzo-[de,g]quinoline-10,11-diol]: the Ki (in general, a dissociation constant, usually derived from enzyme kinetics or from competition with a known ligand) on Adrenergic α2B amounted to 4.1 nM; on Adrenergic α1D it was 588 nM. On muscarinic M1, the binding activity result is “No significant binding activity”.
